Measurements from patent US6150376A, “Bi- and tri-cyclic aza compounds and their uses” (Georgetown University, priority 1998, dated 2000).

Amino acid sequences for entries named in this document (tags omitted). Residues count along the entry.
UniProt P31652, whole entry: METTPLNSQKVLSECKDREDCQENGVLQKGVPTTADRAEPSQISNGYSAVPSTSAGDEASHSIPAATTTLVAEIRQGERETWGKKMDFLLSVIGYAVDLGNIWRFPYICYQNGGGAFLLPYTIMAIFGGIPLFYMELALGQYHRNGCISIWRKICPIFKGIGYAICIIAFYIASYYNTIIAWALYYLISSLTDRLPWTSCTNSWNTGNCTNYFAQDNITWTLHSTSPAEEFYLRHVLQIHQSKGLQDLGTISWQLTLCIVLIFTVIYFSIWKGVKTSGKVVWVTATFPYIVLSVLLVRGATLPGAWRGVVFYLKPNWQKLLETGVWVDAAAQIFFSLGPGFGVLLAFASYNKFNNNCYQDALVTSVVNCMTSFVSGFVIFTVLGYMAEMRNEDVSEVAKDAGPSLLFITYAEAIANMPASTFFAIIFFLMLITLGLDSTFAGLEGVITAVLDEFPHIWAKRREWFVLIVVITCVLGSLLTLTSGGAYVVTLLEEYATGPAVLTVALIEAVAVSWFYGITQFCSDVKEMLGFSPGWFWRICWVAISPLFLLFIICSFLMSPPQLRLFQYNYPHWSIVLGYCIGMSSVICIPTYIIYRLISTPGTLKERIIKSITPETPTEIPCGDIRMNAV
UniProt Q63380, 1-617: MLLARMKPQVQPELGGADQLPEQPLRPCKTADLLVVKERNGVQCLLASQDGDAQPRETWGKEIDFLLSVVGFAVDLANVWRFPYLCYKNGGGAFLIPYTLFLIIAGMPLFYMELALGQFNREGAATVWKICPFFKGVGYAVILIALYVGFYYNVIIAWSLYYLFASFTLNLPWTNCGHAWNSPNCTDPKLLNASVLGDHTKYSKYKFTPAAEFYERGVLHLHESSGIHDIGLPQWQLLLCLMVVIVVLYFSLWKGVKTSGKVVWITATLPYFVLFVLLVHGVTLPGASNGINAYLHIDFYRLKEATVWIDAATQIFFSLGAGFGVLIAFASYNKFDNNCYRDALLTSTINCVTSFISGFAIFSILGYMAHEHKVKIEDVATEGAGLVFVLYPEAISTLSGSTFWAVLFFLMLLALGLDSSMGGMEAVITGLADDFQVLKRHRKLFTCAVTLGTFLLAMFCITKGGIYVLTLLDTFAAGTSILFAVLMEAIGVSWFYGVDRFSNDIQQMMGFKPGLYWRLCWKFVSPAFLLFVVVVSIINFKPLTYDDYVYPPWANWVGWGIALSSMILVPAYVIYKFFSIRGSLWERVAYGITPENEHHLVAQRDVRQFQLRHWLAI

Legend:
serotonin transporter = target: T1, serotonin transporter (Rattus norvegicus, UniProt P31652); assay: [3H]5-HT uptake (re-uptake inhibition at the serotonin transporter); assay type: biochemical; conditions: Ki ± SE; Krebs-Ringer-HEPES buffer
T1 construct: from tissue
Description: (§1) Various isomeric forms of front-bridged Compounds 4, 5, 29, 30, 31, 40 and 50a and back-bridged Compounds 41, 42a, 42b, 49a and 50a were assayed for binding at the dopamine transporter and for inhibition of monamine re-uptake at the dopamine, serotonin and norepinephrine transporters. Mazindol binding were measured as previously described in Johnson et. al., 1992, Eur. J. Pharmacol., Mol. Pharmacol. Sect., 227:411-415. Reuptake inhibition was measured essentially as described in Yi et. al., 1991, Neuropharmacol. 29:475-486, except that an identical Krebs-Ringer-HEPES buffer was used for binding and all uptake assays (Slusher et al., 1997, Drug Alcohol Depend. 48:43-50).

[1] = target: T2, norepinephrine transporter (Rattus norvegicus, UniProt Q63380); assay: [3H]NE uptake (re-uptake inhibition at the norepinephrine transporter); assay type: biochemical; conditions: Ki ± SE; Krebs-Ringer-HEPES buffer
T2 construct: from tissue
Description: as §1

Work on cocaine [reference compound] yielded a Ki (serotonin transporter) of 154.7 ± 0.4 nM and a Ki [1] of 83.3 ± 1.5 nM.
